Source: ChEMBL document CHEMBL1143255, “Standard protecting groups create potent and selective kappa opioids: salvinorin B alkoxymethyl ethers” (Bioorg Med Chem, 2008)

Protein sequences, listed by entry. Tags and fused reporters are not part of them. Lines headed by an entry give the natural chain unless they say otherwise; changes in a name come on top.
UniProt P41145: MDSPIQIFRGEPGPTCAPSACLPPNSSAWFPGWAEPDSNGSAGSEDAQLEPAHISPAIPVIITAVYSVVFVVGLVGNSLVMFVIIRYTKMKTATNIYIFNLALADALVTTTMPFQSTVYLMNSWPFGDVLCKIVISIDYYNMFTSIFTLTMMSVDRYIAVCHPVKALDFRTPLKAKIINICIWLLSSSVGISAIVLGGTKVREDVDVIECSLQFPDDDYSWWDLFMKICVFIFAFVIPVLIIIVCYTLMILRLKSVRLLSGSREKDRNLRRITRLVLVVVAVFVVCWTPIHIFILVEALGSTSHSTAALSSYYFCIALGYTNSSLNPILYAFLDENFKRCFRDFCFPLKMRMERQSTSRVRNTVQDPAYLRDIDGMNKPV

What was measured:
[1] = Selectivity for human kappa opioid receptor over mouse delta opioid receptor
[2] = Selectivity for human kappa opioid receptor over rat mu opioid receptor
[3] = molecular target: Kappa-type opioid receptor (Homo sapiens, UniProt P41145); assay: Agonist activity at human kappa opioid receptor expressed in CHO cells assessed as stimulation of [35S]GTPgammaS binding relative to U50488H; type: functional, cell-based
Outline: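 Potency and efficacy from [35S]GTPγS binding to membranes of CHO cells stably expressing human κ receptor; testing blinded to compound identity and molecular mass.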

Which Selectivity ratio [1] does the source give for COCO[C@H]1C[C@@H](C(=O)OC)[C@]2(C)CC[C@H]3C(=O)O[C@H](c4ccoc4)C[C@]3(C)[C@H]2C1=O here?
The Selectivity ratio was over 1600.

And the Selectivity ratio [2]?
Its Selectivity ratio is over 1600.

And the Emax [3]?
Its Emax is 81%.
